# Test: Selectivity index, ratio of CC50 for human MT4 cells to EC50 for antiviral activity against HIV1 3B infected in human MT4 cells incubated for 5 days by MTT assay
# Assay type: toxicity, cell-based
# Conditions: MT4 cells (uninfected for CC50; HIV-1 3B infected for EC50)
smiles,measurement,value
Cc1cc(C#N)cc(C)c1Oc1nc(Nc2ccc(C#N)cc2)nc(N)c1Br [ETRAVIRINE],selectivity ratio at 120 h,> 833

# Reference: ChEMBL document CHEMBL4354822, “Ligand-Based Design of Nondimethylphenyl-Diarylpyrimidines with Improved Metabolic Stability, Safety, and Oral Pharmacokinetic Profiles” (J Med Chem, 2019)
